The target in experiment [1] is T1, Aurora A (AurA) (Homo sapiens, UniProt O14965, C290S/C393S/L225C/T287C).
T1 construct: human Aurora A, residues 122-403, containing an N-terminal hexahistidine tag; hexahistidine (N); made in house; host or cells: E. coli BL21-DE3-RIL
T1 sequence (O14965 122-403 L225C/T287C/C290S/C393S): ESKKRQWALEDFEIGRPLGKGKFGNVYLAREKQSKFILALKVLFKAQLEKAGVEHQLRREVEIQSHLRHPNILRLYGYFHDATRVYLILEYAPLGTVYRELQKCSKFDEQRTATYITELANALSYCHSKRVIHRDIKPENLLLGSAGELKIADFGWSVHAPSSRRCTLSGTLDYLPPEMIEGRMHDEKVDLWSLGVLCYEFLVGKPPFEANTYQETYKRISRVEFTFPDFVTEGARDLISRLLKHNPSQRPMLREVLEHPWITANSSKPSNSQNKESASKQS
The experiment can be described thus: Time-resolved FRET ligand titration with labeled AurA (Example 1). Type of experiment: binding. Particulars: TR-FRET, ligand added to labeled AurA. The procedure: The resulting data were analyzed as described in Muretta et al. (Proc Natl Acad Sci USA, 2015, 112(47):14593-8). Results obtained with both methods were similar.
Direct waveform recording experiments were performed in a 384 well plate, and measurement was performed using a NovaFluor fluorescence lifetime plate reader (Fluorescence Innovations, Inc., Minneapolis, Minn.). Details of this instrument can be found in Cornea et al. (J Biomol Screen, 2013, 18:97-107). Experiments were performed at 50 nM AurA in ADP Quest Assay buffer+1% DMSO.
TCSPC experiments were performed using a spectrometer built by the group of Dr. David D. Thomas. Details of the instrument and analysis have been previously described in Agafonov et al. (Proc Natl Acad Sci, 2009, 106(51):21625-21630). Experiments were performed at 100 nM to 200 nM AurA in ADP Quest Assay buffer+1% DMSO.
For orientation: Time-resolved FRET reads energy transfer from a long-lived donor to a nearby acceptor.

Experiment [2] addresses T2, Aurora A (AurA) (Homo sapiens, UniProt O14965, C290A/C393S/L225C/S284C).
T2 sequence (O14965 122-403 L225C/S284C/C290A/C393S): T1 sequence (O14965 122-403 L225C/T287C/C290S/C393S) with S163C, C166T, S169A
T2 sequence (Q9ULW0 1-43 partner): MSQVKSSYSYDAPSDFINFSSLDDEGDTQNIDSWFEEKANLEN
Put plainly: Time-resolved FRET lifetime assay, AurA biosensor labeled at L225C/S284C, 384-well plates. Particulars: phosphorylated AurA in the presence of TPX2, no inhibitor.

Experiment [3] has as its target T3, Aurora A (AurA) (Homo sapiens, UniProt O14965, C290S/C393S/L225C/S284C).
T3 sequence (O14965 122-403 L225C/S284C/C290S/C393S): T1 sequence (O14965 122-403 L225C/T287C/C290S/C393S) with S163C, C166T
T3 sequence (Q9ULW0 1-43 partner): T2 sequence (Q9ULW0 1-43 partner)
The experiment is described as above. The conditions noted are these: unphosphorylated AurA in the presence of TPX2, no inhibitor.

The results in this text go back to patent publication US11099177B2, “Protein kinase allostery sensor and methods of making and using same” (REGENTS OF THE UNIVERSITY OF MINNESOTA, priority 2016, dated 2021).

Residue numbers refer to the chain shown, from its start.

Take “TPX2: AurA-specific activator peptide, synthetic construct of human TPX2 residues 1-43”: in the experiment with Aurora A (AurA) [1], the “change in average fluorescence lifetime” value is listed as “increase in average fluorescence lifetime”. Moreover, the inter-dye distance with Aurora A (AurA) [2] was 52 angstroms; with Aurora A (AurA) [3], 48 angstroms.
